{"source": "paper PMC8172577", "about": "“A Novel Antimicrobial Peptides From Pine Needles of Pinus densiflora Sieb. et Zucc. Against Foodborne Bacteria” (Frontiers in Microbiology, 2021)", "key": {"[1]": {"system": "Escherichia coli ATCC25922", "format": "cell-based", "conditions": "minimal concentration of peptide to inhibit microbial growth; 5 × 10^5 CFU/ml, 18 h at 37°C, OD 600 nm", "method": "(§1) For antimicrobial assays, Escherichia coli ATCC 25922, Pseudomonas aeruginosa ATCC 15692, Staphylococcus aureus ATCC 25923, and Staphylococcus epidermidis ATCC 12228 were obtained from the American Type Culture Collection (Manassas, VA, United States). Salmonella typhimurium KCTC 1926 and Listeria monocytogenes KCTC 3710 were obtained from the Korean Collection for Type Cultures (Jeollabuk-do, Korea).\n(§2) Minimum inhibitory concentrations (MICs) of purified PN peptides were assayed according to the Clinical and Laboratory Standards Institute recommendations ([Wiegand et al., 2008]). Briefly, bacterial suspension (5 × 10^5 CFU/ml), obtained by diluting an exponential growth phase culture, was then added into the 96-well plates containing 2-fold serial dilutions of each fraction, the plates were incubated for 18 h at 37°C. MICs of PN peptides were measured in optical density at 600 nm using Versamax™ ELISA Microplate Reader (Molecular Devices, Sunnyvale, CA, United States). PBS, culture media, and melittin were used as growth and growth inhibition controls. The MIC was defined as the lowest concentration of PN peptide that was able to inhibit microbial growth."}, "[2]": {"system": "Staphylococcus aureus ATCC25923", "format": "cell-based", "conditions": "minimal concentration of peptide to inhibit microbial growth; 5 × 10^5 CFU/ml, 18 h at 37°C, OD 600 nm", "method": "as §1, §2"}}}
{"smiles": "CC[C@H](C)[C@H](NC(=O)CN)C(=O)NCC(=O)N[C@@H](C)C(=O)N[C@H](C(=O)N[C@@H](CC(C)C)C(=O)N[C@@H](CCCCN)C(=O)N[C@H](C(=O)N[C@@H](CC(C)C)C(=O)N[C@H](C(=O)N[C@H](C(=O)NCC(=O)N[C@@H](CC(C)C)C(=O)N1CCC[C@H]1C(=O)N[C@@H](C)C(=O)N[C@@H](CC(C)C)C(=O)N[C@H](C(=O)N[C@@H](CO)C(=O)N[C@@H](Cc1c[nH]c2ccccc12)C(=O)N[C@H](C(=O)N[C@@H](CCCCN)C(=O)N[C@@H](CCCNC(=N)N)C(=O)N[C@@H](CCCCN)C(=O)N[C@@H](CCCNC(=N)N)C(=O)N[C@@H](CCC(N)=O)C(=O)N[C@@H](CCC(N)=O)C(N)=O)[C@@H](C)CC)[C@@H](C)CC)[C@@H](C)O)[C@@H](C)O)C(C)C)C(C)C", "note": "[Melittin, reference compound]", "values": [{"measurement": "MIC", "setting": "[1]", "value": 2, "unit": "µg/mL"}, {"measurement": "MIC", "setting": "[2]", "value": 4, "unit": "µg/mL"}]}
